The values that follow are results of earlier work, collected in patent US12100485B2, “Machine learning and molecular simulation based methods for enhancing binding and activity prediction” (The Board of Trustees of the Leland Stanford Junior …, priority 2018, dated 2024).

The subject of the series is μOR. Conditions: known pharmacology, training dataset.

Turning to `CN(C)[C@]1(c2ccccc2)CC[C@]2(CC1)OCCc1c3cc(F)ccc3[nH]c12`, the Action result is given as “agonist”.
